Measurements from patent EP4847497A1, “FIBROBLAST ACTIVATION PROTEIN-TARGETING MATERIAL BASED ON 3-STYRYLPYRIDINE STRUCTURE” (dated 2026).

Chains of the proteins cited; added tags and fusions are not shown.
UniProt Q12884, whole entry: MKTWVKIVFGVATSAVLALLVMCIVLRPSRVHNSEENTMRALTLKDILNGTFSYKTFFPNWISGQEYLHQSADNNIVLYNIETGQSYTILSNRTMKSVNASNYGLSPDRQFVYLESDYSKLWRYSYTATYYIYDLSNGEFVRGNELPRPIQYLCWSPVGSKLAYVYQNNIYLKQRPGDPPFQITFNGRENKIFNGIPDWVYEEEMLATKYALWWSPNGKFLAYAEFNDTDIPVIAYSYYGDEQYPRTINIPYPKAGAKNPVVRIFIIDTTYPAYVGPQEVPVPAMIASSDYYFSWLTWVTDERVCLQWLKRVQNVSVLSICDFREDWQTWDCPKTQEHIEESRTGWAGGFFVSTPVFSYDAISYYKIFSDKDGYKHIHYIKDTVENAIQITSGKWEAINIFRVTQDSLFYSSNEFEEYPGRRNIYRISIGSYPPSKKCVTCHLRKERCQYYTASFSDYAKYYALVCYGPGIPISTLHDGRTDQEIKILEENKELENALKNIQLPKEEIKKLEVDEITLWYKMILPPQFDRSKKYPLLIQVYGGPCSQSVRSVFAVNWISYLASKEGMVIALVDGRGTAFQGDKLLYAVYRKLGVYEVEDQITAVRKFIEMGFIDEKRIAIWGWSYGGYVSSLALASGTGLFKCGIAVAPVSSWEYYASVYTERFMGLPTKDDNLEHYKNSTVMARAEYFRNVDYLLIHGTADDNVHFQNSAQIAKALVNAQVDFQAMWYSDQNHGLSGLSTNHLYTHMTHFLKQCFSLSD

Target: FAP (Homo sapiens, UniProt Q12884)
Assay: In vitro FAP inhibitory activity, Ala-Pro-AMC substrate fluorescence assay

- IC50 (substrate 2.5 µM, FAP 20 nM, pH 7.4): 43 nM
SMILES: N#CC1CCCN1C(=O)CNC(=O)c1ccc(/C=C/c2ccc(O)cc2)cn1 (centres unmarked)
- FAP inhibitory activity (in words, compared with UAMC 1110): excellent FAP inhibitory activity similar to UAMC 1110
